Laboratory results: patent publication US20180360881A1, “Compositions and Methods for Treatment of Her2 Positive Metastatic Breast Cancer” (NANT HOLDINGS IP, LLC, priority 2015, published 2018)

Test system: MDA-MB-453 cells
Assay: haNK cells plus trastuzumab in mouse model of HER2-positive breast cancer: tumor volume, T/C
Assay type: in vivo, female NOD-SCID IL2Rgamma^null (NSG) mice
Conditions: for T/C value: day 29
Description: In a second exemplary treatment method to determine efficacy of haNK cells in combination with trastuzumab in a mouse model of HER2-positive breast cancer, the inventors used haNK cells as described previously. The haNK cells were developed by transfecting a parental aNK cell line with a bicistronic plasmid vector containing the high affinity V variant of CD16 (having valine at position 158) and an intracellularly-retained IL-2, which enables haNK cells to grow in the absence of exogenous IL-2. The plasmid contained some human origin sequences for CD16 and IL-2, neither of which have any transforming properties.
MDA-MB-453 cells (0.1 mL of 1×10^8/mL in 50% Matrigel) were injected subcutaneously into the left and right flank area of female NOD-SCID IL2Rgamma^null (NSG, Jackson Laboratory) mice (7 to 8 weeks old). When tumors reached about 100 mm^3, the mice were randomly assigned to one of ten groups of four mice/group as noted in FIG. 4A and dosed intravenously in the tail vein with saline (PBS), IgG1 (in 1 gm/kg and 3 mg/kg doses), trastuzumab (in 1 gm/kg and 3 mg/kg doses), haNK Cells as described previously (1×10^7 cells), combined IgG1 and haNK Cells treatment (IgG1 in 1 gm/kg and 3 mg/kg doses), and combined trastuzumab and haNK Cells treatment (trastuzumab in 1 gm/kg and 3 mg/kg doses). As depicted in FIG. 4F, the IgG1 and trastuzumab control groups received doses once per week for four weeks, while the saline, haNK Cells, and combined IgG1/trastuzumab and haNK Cells treatment regiments antibodies were administered once per week for four weeks and the haNK Cells were administered twice per week for four weeks. In the combined treatments, the mice received the antibody dose at least 3 hours prior to the injection of haNK cells.
Tumor growth and animal weights were measured twice weekly, as recorded in FIGS. 4B-4F. Statistical analyses of the difference in tumor volume or body weight change among the groups were evaluated using two-way ANOVA with repeated measures followed by the Bonferroni test, as reported in FIG. 4F (P-value). All the data were analyzed using GraphPad Prism software version 5. P<0.05 was considered to be statistically significant. The reported T/C (%) of FIG. 4F is ΔT/ΔC×100, where the ΔT and ΔC are the changes in the mean tumor volumes between day 29 and the first day of measurement for the treatment and control groups, respectively. The MWL is the maximum animal body weight loss over for the observed treatment cycle.

Q: With “trastuzumab: antibody with binding specificity for HER2” as the substance, how does the “net change in tumor size” value (control and 1 mg/kg antibody groups) read?
A: net-reduction in tumor size

Q: And the T/C value (antibody 1 mg/kg i.v. once per week for four weeks (haNK 1×10^7 cells twice per week where combined))?
A: −34.5%

Q: And the T/C value (antibody 3 mg/kg i.v. once per week for four weeks (haNK 1×10^7 cells twice per week where combined))?
A: −95.2%

Q: What about the tumor reduction (trastuzumab 3 mg/kg, alone versus combined with haNK Cells) of the same substance?
A: approximately the same tumor reduction
